## Yeast mating assay B: variants of the scFv Ab-14

Values reported by Li et al. 2023, doi:10.1038/s41467-023-39022-2 (FLAb copy).

The target is the same throughout: PDVDLGDISGINAS, from the HR2 region of SARS-CoV-2 spike.

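The parent was found by panning a naive human phage display library on the peptide. The variants were designed computationally from a first round of random CDR variants and then made and measured. Several design methods are mixed in this list. AlphaSeq pools MATa yeast showing the antibodies with MATalpha yeast showing the peptide. After mating in shaken culture at 30 °C for 16 h, diploids were selected and their barcode pairs sequenced. A regression on co-assayed BCL2-family reference pairs converts the normalised counts of each replicate to an apparent Kd. Each pool was mated in six replicate cultures.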

Each scFv is VH, the linker GGGGSGGGGSGGGGS, VL, as in the parent Ab-14, and differs from it in the CDRs of the light chain only.
VH: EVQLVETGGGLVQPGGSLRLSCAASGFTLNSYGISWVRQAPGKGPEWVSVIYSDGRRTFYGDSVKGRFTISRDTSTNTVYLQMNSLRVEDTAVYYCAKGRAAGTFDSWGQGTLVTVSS
VL: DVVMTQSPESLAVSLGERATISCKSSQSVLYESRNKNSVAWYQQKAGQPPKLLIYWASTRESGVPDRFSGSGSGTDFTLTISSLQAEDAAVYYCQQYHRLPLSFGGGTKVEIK

Substitutions are numbered in sequence along the VL above, starting at 1 (not Kabat).
Variants here have at most six changes.
Each Kd is an estimate from the mating assay, the geometric mean of the replicates in which the pair was seen; lower is stronger.
"no signal" marks a missing value. The strain was present, yet no cells mated with the target were sequenced in any replicate, which points to weak or no binding.
The authors' rule: three or more of the six replicates give a measured affinity, fewer mean a poor binder.
The parent sequence was in this pool as ten entries: three were never detected, three once, and four in most replicates, with averages from 2.2 nM to 240 nM.
Where one sequence has several entries in the source, the replicates are pooled.
Background: pairings of all light chain designs with three empty control strains gave a value in 4% of cases (median 430 nM, 5th percentile 38 nM). Values in that range, when seen in few replicates, are hard to tell from nonspecific mating.
Values of this round are not directly comparable with the first-round values of the same sequences.

- V29I+Y31P: 46 nM (2 of 6 replicates)
- K24H+Y31M+W56D: 2.7 nM (6 of 6 replicates)
- S26E+W56R+S58R: 170 nM (2 of 6 replicates)
- V29D+R34S+W56N+Q96Y: 31 nM (6 of 6 replicates)
- S25V+N35Q+W56N+T59Q: 820 pM (6 of 6 replicates)
- R34H+T59W: no signal (0 of 6 replicates)
- S25Q+V29L+Y31C+W56D: 1.4 nM (6 of 6 replicates)
- S25V+V29Y+R34G+N35T+W56N+T59S: 2.2 nM (6 of 6 replicates)
- S25V+V29K+Y31G+K36M+W56N+S62D: 1.6 nM (6 of 6 replicates)
- E61A+H98C: 14 nM (3 of 6 replicates)
- S25L+S26P+Q27N+V29T+N35M+W56N: 2.2 nM (6 of 6 replicates)
- S25L+S26A+V29W+W56N: 490 pM (6 of 6 replicates)
- Q27F+R34F+S58Y: 68 nM (2 of 6 replicates)
- S25F+N35T+W56N+S58V+S62T+S103W: 310 pM (6 of 6 replicates)
- L30P+R34S: 25 nM (6 of 6 replicates)
- S25V+S26R+V29H: 2.4 nM (6 of 6 replicates)
- Q96T: 260 nM (1 of 6 replicates)
- Y31F+S58T: no signal (0 of 6 replicates)
- Y31K+E32L+R34G+W56R+H98V: 31 nM (6 of 6 replicates)
- T59M+S62V: no signal (0 of 6 replicates)
- K24I+Y31P+W56D: 4.5 nM (6 of 6 replicates)
- Y31G+R34E: 10 nM (6 of 6 replicates)
- S25L+S26Q+V29Q+W56N+Q96D: 720 pM (6 of 6 replicates)
- V29Y+W56G: 2.2 nM (6 of 6 replicates)
- S25V+Q27T+W56D: 470 pM (6 of 6 replicates)
- S25V+S26E+V29F+W56N: 880 pM (6 of 6 replicates)
- W56S+H98Q+L102S: 2.6 µM (2 of 6 replicates)
- S25F+S26P+V29E+W56N: 910 pM (6 of 6 replicates)
- K24A+S25L+V29G+N35M+W56N+S62E: 2.4 nM (6 of 6 replicates)
- S25W+Y31G+S33Q+W56D+A57I: 500 pM (6 of 6 replicates)
- S25L+V29E+S33Q+W56N: 850 pM (6 of 6 replicates)
- S25M+K36S+S38A+W56Q+T59Q+E61M: 4.2 nM (6 of 6 replicates)
- S25L+V29E+W56H+T59Q: 490 pM (6 of 6 replicates)
- S26E+H98A: 7.2 nM (3 of 6 replicates)
- S25L+S26A+V29T+L30K+K36Q+W56Y: 3.0 nM (6 of 6 replicates)
- Q27W+L30P+W56D: 250 pM (6 of 6 replicates)
- Q27I+V29Y+Y31E+W56E: 1.8 nM (6 of 6 replicates)
- S25L+V29W+W56N+S62L: 730 pM (6 of 6 replicates)
- K24I+L30A+W56G+H98N: 15 nM (6 of 6 replicates)
- S25L+S26R+V29T+K36Q+S62V: 1.8 nM (6 of 6 replicates)
- L30S+K36L+L100D: no signal (0 of 6 replicates)
- Q27D+W56D: 1.4 nM (12 of 12 replicates)
- S26L+Q27W+R34N+W56A+S62D: 4.2 nM (6 of 6 replicates)
- Q27I+R34M+W56N+A57G: 3.4 nM (6 of 6 replicates)
- L30P+N35E+K36G+W56Q+Q96T: 5.8 nM (6 of 6 replicates)

Repeated from above, the 6 best binders with a signal in all replicates:

- Q27W+L30P+W56D: 250 pM (6 of 6 replicates)
- S25F+N35T+W56N+S58V+S62T+S103W: 310 pM (6 of 6 replicates)
- S25V+Q27T+W56D: 470 pM (6 of 6 replicates)
- S25L+S26A+V29W+W56N: 490 pM (6 of 6 replicates)
- S25L+V29E+W56H+T59Q: 490 pM (6 of 6 replicates)
- S25W+Y31G+S33Q+W56D+A57I: 500 pM (6 of 6 replicates)